By MIC is commonly meant the smallest concentration in the dilution series that meets the test's criterion for growth inhibition. A low value points to a more susceptible organism.

In brackets after ≈: the same amount, converted by molar mass.

In assay [1] the test system is Staphylococcus epidermidis D153. It counts as cell-based. Conditions: nutrient agar, 10^4 CFU/ml.
Another assay relates to Escherichia coli NIHJ. The format is cell-based. Conditions: nutrient agar, 10^4 CFU/ml.

Regarding `CC1(C)S[C@@H]2[C@H](NC(=O)[C@H](N)c3ccccc3)C(=O)N2[C@H]1C(=O)O` [Ampicillin], the MIC (in assay [1]; against Escherichia coli NIHJ) was 0.2 µg/mL (≈ 0.572 µM) in each case.
